One data set is described as follows: physchem. It counts as physicochemical. From the text: As HPLC/UPLC method, method D or E has been used.
Data set [1] concerns the target T1, human GLP-1 receptor (hGLP-1 R) (Homo sapiens, UniProt P43220).
T1 construct: expressed in transfected cells
Description: cAMP response of HEK-293 cells expressing human GLP-1 receptor (HTRF). It counts as cell-based. To be noted: cAMP formation. A general note: TR-FRET usually uses a lanthanide donor and a delayed reading to cut background.

Protein sequences, listed by entry. Tags and fused reporters are not part of them. Residues count along the entry.
UniProt P43220, 24-463: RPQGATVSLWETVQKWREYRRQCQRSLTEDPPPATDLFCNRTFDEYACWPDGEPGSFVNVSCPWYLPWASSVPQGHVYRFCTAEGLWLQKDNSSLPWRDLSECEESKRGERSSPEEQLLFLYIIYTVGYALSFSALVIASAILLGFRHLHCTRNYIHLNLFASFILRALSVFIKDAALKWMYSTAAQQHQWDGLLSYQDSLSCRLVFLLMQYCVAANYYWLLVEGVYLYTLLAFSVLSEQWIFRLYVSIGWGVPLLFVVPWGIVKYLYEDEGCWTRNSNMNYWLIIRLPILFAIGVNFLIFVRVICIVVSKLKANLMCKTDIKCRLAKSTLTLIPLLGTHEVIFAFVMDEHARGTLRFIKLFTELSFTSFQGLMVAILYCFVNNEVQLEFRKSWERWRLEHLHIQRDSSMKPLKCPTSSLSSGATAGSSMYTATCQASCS

Data on four compounds can be found in patent US20170022260A9 (Sanofi, priority 2013, published 2017).

As a reminder, the solubility is how much of the substance goes into solution per volume. The term EC50 denotes the concentration giving half of the maximal effect. Low readings indicate a more potent agent, high ones a less potent agent.

The structures appear in SMILES notation. Values after ≈ are worked out from the molar mass of the structure shown.

On to `CC[C@H](C)[C@H](NC(=O)[C@H](CC(C)C)NC(=O)[C@H](Cc1c[nH]c2ccccc12)NC(=O)[C@H](CCC(=O)O)NC(=O)[C@@H](NC(=O)[C@H](Cc1ccccc1)NC(=O)[C@H](CC(=O)O)NC(=O)[C@H](CCCCN)NC(=O)[C@H](C)NC(=O)[C@H](CCCNC(=N)N)NC(=O)[C@H](CCC(N)=O)NC(=O)[C@H](CCC(=O)O)NC(=O)[C@H](CC(=O)O)NC(=O)[C@H](CC(C)C)NC(=O)[C@H](CCC(N)=O)NC(=O)[C@H](CCCCN)NC(=O)[C@H](CO)NC(=O)[C@H](CC(C)C)NC(=O)[C@H](CC(=O)O)NC(=O)[C@H](CO)NC(=O)[C@@H](NC(=O)[C@H](Cc1ccccc1)NC(=O)[C@@H](NC(=O)CNC(=O)[C@H](Cc1c[nH]cn1)NC(=O)C(C)(C)NC(=O)[C@@H](N)Cc1c[nH]cn1)[C@@H](C)O)[C@@H](C)O)[C@@H](C)CC)C(=O)N[C@@H](C)C(=O)NCC(=O)NCC(=O)N1CCC[C@H]1C(=O)N[C@@H](CO)C(=O)N[C@@H](CO)C(=O)NCC(=O)N[C@@H](C)C(=O)N1CCC[C@H]1C(=O)N1CCC[C@H]1C(=O)N1CCC[C@H]1C(=O)N[C@@H](CO)C(N)=O` [compound 10], for which the solubility at 2 h was found to be 950 µg/mL (≈ 228 µM) in the data set “physchem” (pH 4.5, solubility pH 4.5) and 710 µg/mL (≈ 171 µM) in “physchem” (pH 7.4, solubility pH 7.4). Compound `CC[C@H](C)[C@H](NC(=O)[C@H](CC(C)C)NC(=O)[C@H](Cc1c[nH]c2ccccc12)NC(=O)[C@H](CCC(=O)O)NC(=O)[C@@H](NC(=O)[C@H](Cc1ccccc1)NC(=O)[C@H](CC(=O)O)NC(=O)[C@](C)(CCCCN)NC(=O)[C@H](C)NC(=O)[C@H](CCCNC(=N)N)NC(=O)[C@H](CCC(N)=O)NC(=O)[C@H](CCC(=O)O)NC(=O)[C@H](CC(=O)O)NC(=O)[C@H](CC(C)C)NC(=O)[C@H](CCC(N)=O)NC(=O)[C@H](CCCCN)NC(=O)[C@H](CO)NC(=O)[C@H](CC(C)C)NC(=O)[C@H](CC(=O)O)NC(=O)[C@H](CO)NC(=O)[C@@H](NC(=O)[C@H](Cc1ccccc1)NC(=O)[C@@H](NC(=O)CNC(=O)[C@H](CCC(N)=O)NC(=O)C(C)(C)NC(=O)[C@@H](N)Cc1c[nH]cn1)[C@@H](C)O)[C@@H](C)O)[C@@H](C)CC)C(=O)N[C@@H](C)C(=O)NCC(=O)NCC(=O)N1CCC[C@H]1C(=O)N[C@@H](CO)C(=O)N[C@@H](CO)C(=O)NCC(=O)N[C@@H](C)C(=O)N1CCC[C@H]1C(=O)N1CCC[C@H]1C(=O)N1CCC[C@H]1C(=O)N[C@@H](CO)C(N)=O` [compound 14] gave an EC50 in data set [1] of 1 pM. As for `CC[C@H](C)[C@H](NC(=O)[C@H](CC(C)C)NC(=O)[C@H](Cc1c[nH]c2ccccc12)NC(=O)[C@H](CCC(=O)O)NC(=O)[C@@H](NC(=O)[C@H](Cc1ccccc1)NC(=O)[C@H](CC(=O)O)NC(=O)[C@H](CCC(N)=O)NC(=O)[C@H](C)NC(=O)[C@H](CCCNC(=N)N)NC(=O)[C@H](CCC(N)=O)NC(=O)[C@H](CCC(=O)O)NC(=O)[C@H](CC(=O)O)NC(=O)[C@H](CC(C)C)NC(=O)[C@H](CCC(N)=O)NC(=O)[C@H](CCCCN)NC(=O)[C@H](CO)NC(=O)[C@H](CC(C)C)NC(=O)[C@H](CC(=O)O)NC(=O)[C@H](CO)NC(=O)[C@@H](NC(=O)[C@H](Cc1ccccc1)NC(=O)[C@@H](NC(=O)CNC(=O)[C@H](CCC(N)=O)NC(=O)C(C)(C)NC(=O)[C@@H](N)Cc1c[nH]cn1)[C@@H](C)O)[C@@H](C)O)[C@@H](C)CC)C(=O)N[C@@H](C)C(=O)NCC(=O)NCC(=O)N1CCC[C@H]1C(=O)N[C@@H](CO)C(=O)N[C@@H](CO)C(=O)NCC(=O)N[C@@H](C)C(=O)N1CCC[C@H]1C(=O)N1CCC[C@H]1C(=O)N1CCC[C@H]1C(=O)N[C@@H](CO)C(N)=O` [compound 11], the solubility at 2 h in “physchem” (pH 4.5, solubility pH 4.5) was found to be 923 µg/mL (≈ 222 µM); in “physchem” (pH 7.4, solubility pH 7.4), 969 µg/mL (≈ 233 µM). With `CC[C@H](C)[C@H](NC(=O)[C@H](CC(C)C)NC(=O)[C@H](Cc1c[nH]c2ccccc12)NC(=O)[C@H](CCC(=O)O)NC(=O)[C@@H](NC(=O)[C@H](Cc1ccccc1)NC(=O)[C@H](CC(=O)O)NC(=O)[C@H](CCCCN)NC(=O)[C@H](C)NC(=O)[C@H](CCCNC(=N)N)NC(=O)[C@H](CCC(N)=O)NC(=O)[C@H](CCC(=O)O)NC(=O)[C@H](CC(=O)O)NC(=O)[C@H](CC(C)C)NC(=O)[C@H](CCC(N)=O)NC(=O)[C@H](CCCCN)NC(=O)[C@H](CO)NC(=O)[C@H](CC(C)C)NC(=O)[C@H](CC(=O)O)NC(=O)[C@H](CO)NC(=O)[C@@H](NC(=O)[C@H](Cc1ccccc1)NC(=O)[C@@H](NC(=O)CNC(=O)[C@H](CCC(N)=O)NC(=O)C(C)(C)NC(=O)[C@@H](N)Cc1c[nH]cn1)[C@@H](C)O)[C@@H](C)O)[C@@H](C)CC)C(=O)N[C@@H](CO)C(=O)NCC(=O)NCC(=O)N1CCC[C@H]1C(=O)N[C@@H](CO)C(=O)N[C@@H](CO)C(=O)NCC(=O)N[C@@H](C)C(=O)N1CCC[C@H]1C(=O)N1CCC[C@H]1C(=O)N1CCC[C@H]1C(=O)N[C@@H](CO)C(N)=O` [compound 12], the solubility at 2 h in “physchem” (pH 4.5, solubility pH 4.5) was determined as 992 µg/mL (≈ 238 µM); in the data set “physchem” (pH 7.4, solubility pH 7.4), 972 µg/mL (≈ 233 µM).
